{"sequences": {"note": "Protein sequences, listed by entry. Tags and fused reporters are not part of them.", "UniProt P18089, whole entry": "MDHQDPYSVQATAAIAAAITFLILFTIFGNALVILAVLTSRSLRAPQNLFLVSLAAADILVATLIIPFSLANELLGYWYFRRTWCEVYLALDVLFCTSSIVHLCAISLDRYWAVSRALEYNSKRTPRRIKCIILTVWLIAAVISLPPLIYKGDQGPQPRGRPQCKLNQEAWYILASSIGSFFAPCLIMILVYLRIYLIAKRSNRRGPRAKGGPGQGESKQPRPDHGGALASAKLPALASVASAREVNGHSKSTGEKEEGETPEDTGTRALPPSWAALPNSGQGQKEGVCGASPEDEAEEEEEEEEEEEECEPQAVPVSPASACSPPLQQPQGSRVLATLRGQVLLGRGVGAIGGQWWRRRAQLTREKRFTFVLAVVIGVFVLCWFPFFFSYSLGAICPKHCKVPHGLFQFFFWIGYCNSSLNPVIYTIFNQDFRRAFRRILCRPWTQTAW"}, "source": "patent US20150133456A1", "about": "“FLUOROERGOLINE DERIVATIVES AND USES THEREOF” (MAP PHARMACEUTICALS, INC., priority 2012, published 2015)", "target": "human α2B receptor (Homo sapiens, UniProt P18089)", "test": "biochemical"}
{"smiles": "CN1C[C@H](C(=O)N[C@]2(C)O[C@@]3(O)[C@@H]4CCCN4C(=O)[C@H](Cc4ccccc4)N3C2=O)CC2c3cccc4[nH]c(C(F)(F)F)c(c34)CC21", "note": "(stereo partly shown) [2-CF3-dihydroergotamine]", "values": [{"measurement": "IC50", "value": 2140, "unit": "nM"}]}
